The results in this text go back to patent publication EP2061765B1, “Serine-threonine protein kinase and PARP modulators” (Senhwa Biosciences, Inc., priority 2006, dated 2008).

Chains of the proteins cited; added tags and fusions are not shown.
UniProt P68400, whole entry: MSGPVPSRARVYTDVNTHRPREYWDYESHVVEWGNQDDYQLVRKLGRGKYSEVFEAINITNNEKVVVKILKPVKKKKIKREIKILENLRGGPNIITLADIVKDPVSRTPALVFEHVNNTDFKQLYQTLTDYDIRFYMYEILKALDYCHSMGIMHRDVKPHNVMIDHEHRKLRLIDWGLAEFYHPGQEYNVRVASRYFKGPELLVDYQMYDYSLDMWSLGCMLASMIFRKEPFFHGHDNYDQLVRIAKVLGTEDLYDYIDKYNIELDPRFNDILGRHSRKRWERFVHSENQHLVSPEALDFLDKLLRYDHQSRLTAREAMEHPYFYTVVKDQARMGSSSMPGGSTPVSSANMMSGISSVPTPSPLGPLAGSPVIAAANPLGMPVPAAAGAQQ

Molecules are shown by their SMILES. Where only a bound is given, the exact number is not on record here.

Usually IC50 stands for the midpoint of a concentration-inhibition curve.

This assay deals with T1, recombinant human CK2 (Homo sapiens, UniProt P68400).
T1 construct: purchased Upstate
Description: CK2 Assay (cell-free, radiometric). The assay is classed as biochemical. The settings on record: 15uM ATP.
`O=C(NC1CC1)c1ccc2c(c1)nc(Nc1cccc(C(F)(F)F)c1)c1nc(NC3CC3)ncc12` [drawing 274]: the IC50 is over 750 nM.
As for `CNC(=O)c1ccc2c(c1)nc(Nc1cccc(C(F)(F)F)c1)c1nc(NC3CC3)ncc12` [drawing 275], the IC50 is over 750 nM.
The value for `NC(=O)c1ccc2c(c1)nc(Nc1cccc(C(F)(F)F)c1)c1nc(NC3CC3)ncc12` [drawing 273] was over 750 nM; that for `CNc1ncc2c(n1)c(Nc1ccccc1)nc1cc(C(=O)OC)ccc12` [drawing 223] was over 500 nM; that for `CC(=O)Nc1ccc2c(c1)nc(Nc1cccc(C(F)(F)F)c1)c1nc(NC3CC3)ncc12` was over 750 nM.
As for `COC(=O)c1ccc2c(c1)nc(NC1CC1)c1nc(SCc3ccccc3Cl)ncc12`, the IC50 was over 750 nM.
The result for `COC(=O)c1ccc2c(c1)nc(Nc1ccccc1)c1nc(SC)ncc12` [drawing 221] reads over 500 nM.
The result for `C#Cc1cccc(Nc2nc3cc(C(=O)OC)ccc3c3cnc(NOC)nc23)c1` [drawing 260] reads over 750 nM; that for `CCOc1ncc2c(n1)c(Nc1cccc(C(F)(F)F)c1)nc1cc(C(=O)O)ccc12` [drawing 244], over 750 nM.
As for `COC(=O)c1ccc2c(c1)nc(Nc1ccccc1)c1nc(S(C)(=O)=O)ncc12` [drawing 222], the half-maximal inhibitory concentration (IC50) was over 500 nM.
Turning to `CC(C)OC(=O)Nc1ccc2c(c1)nc(Nc1cccc(C(F)(F)F)c1)c1nc(NC3CC3)ncc12` [drawing 280], the IC50 is over 750 nM.
The result for `COC(=O)c1ccc2c(c1)nc(Nc1cccc(Cl)c1)c1nc(NCCC(N)=O)ncc12` [drawing 261] reads over 750 nM; that for `COC(=O)c1ccc2c(c1)nc(Nc1cccc(Cl)c1)c1ccncc12` [drawing 220], over 500 nM; that for `CN(C)c1ncc2c(n1)c(Nc1cccc(Cl)c1)nc1cc(C(=O)O)ccc12` [drawing 246], over 750 nM.
